# Earlier results as cited in US10632150B1, “Potassium phosphates composition for injection” (CMP Development LLC, priority 2018, dated 2020).
# Conditions: reported value
substance,measurement,value
potassium dibasic phosphate [KDP],solubility in water,about 900 mg/mL
